The results in this text go back to patent US20100311648A1.

By UniProt entry, the sequences of proteins in these tests, tags left out. Where a name states a change or a piece, a line headed by the entry shows the natural chain unless it says otherwise.
UniProt Q01727: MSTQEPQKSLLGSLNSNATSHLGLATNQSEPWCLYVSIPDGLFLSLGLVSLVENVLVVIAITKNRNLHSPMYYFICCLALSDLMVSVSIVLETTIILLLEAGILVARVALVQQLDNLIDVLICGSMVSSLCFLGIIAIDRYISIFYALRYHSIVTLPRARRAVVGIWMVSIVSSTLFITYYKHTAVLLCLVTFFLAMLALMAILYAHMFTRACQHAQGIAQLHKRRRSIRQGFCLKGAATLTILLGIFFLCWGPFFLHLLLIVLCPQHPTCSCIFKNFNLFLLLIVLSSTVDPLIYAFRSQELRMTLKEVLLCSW
UniProt P32245, whole entry: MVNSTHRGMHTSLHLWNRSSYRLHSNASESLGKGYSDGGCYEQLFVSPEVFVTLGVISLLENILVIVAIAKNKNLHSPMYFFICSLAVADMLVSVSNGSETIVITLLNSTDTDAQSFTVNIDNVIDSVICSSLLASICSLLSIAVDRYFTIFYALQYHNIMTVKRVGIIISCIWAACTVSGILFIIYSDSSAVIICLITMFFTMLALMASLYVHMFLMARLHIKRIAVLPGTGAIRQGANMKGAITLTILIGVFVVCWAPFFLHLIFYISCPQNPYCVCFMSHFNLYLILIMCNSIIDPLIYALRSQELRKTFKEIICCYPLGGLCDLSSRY

The target of assay [1] is melanocortin-1 receptor (mouse (B-16 melanoma cells); in some instances human (hMC1-R)) (UniProt Q01727). Kind of assay: [I125]-NDP-α-MSH competition, MC1-R membranes.
Assay [2] deals with human melanocortin-4 receptor (human) (UniProt P32245). Kind of assay: [I125]-NDP-α-MSH competition, hMC4-R HEK-293 membranes.

What is called Ki is the equilibrium dissociation constant of an inhibitor or competing ligand from its target. Low values mean tighter binding, high ones weaker binding. In assay [1], “Ac-Arg-cyclo(Glu-Dap-D-Phe(2-Cl)-Arg-Trp-Orn)-NH2 (peptide)” yielded an inhibition constant (Ki) of 0.028 µM.

“Ac-Arg-cyclo(Glu-Dab-D-Phe(2-CN)-Arg-Trp-Orn)-NH2 (peptide)” registered a Ki in assay [1] of 0.035 µM.

Substance “Ac-Arg-cyclo(Glu-Dab-D-Phe(3,4-diOMe)-Arg-Trp-Orn)-NH2 (peptide)” had an inhibitory constant (Ki) in assay [2] of 0.035 µM.
